Results from patent US8158625B2, “Bicyclic indole-pyrimidine PI3K inhibitor compounds selective for P110 delta, and methods of use” (Genentech, Inc., priority 2009, dated 2012).

Protein sequences, listed by entry. Tags and fused reporters are not part of them. Lines headed by an entry give the natural chain unless they say otherwise; changes in a name come on top.
UniProt O00329: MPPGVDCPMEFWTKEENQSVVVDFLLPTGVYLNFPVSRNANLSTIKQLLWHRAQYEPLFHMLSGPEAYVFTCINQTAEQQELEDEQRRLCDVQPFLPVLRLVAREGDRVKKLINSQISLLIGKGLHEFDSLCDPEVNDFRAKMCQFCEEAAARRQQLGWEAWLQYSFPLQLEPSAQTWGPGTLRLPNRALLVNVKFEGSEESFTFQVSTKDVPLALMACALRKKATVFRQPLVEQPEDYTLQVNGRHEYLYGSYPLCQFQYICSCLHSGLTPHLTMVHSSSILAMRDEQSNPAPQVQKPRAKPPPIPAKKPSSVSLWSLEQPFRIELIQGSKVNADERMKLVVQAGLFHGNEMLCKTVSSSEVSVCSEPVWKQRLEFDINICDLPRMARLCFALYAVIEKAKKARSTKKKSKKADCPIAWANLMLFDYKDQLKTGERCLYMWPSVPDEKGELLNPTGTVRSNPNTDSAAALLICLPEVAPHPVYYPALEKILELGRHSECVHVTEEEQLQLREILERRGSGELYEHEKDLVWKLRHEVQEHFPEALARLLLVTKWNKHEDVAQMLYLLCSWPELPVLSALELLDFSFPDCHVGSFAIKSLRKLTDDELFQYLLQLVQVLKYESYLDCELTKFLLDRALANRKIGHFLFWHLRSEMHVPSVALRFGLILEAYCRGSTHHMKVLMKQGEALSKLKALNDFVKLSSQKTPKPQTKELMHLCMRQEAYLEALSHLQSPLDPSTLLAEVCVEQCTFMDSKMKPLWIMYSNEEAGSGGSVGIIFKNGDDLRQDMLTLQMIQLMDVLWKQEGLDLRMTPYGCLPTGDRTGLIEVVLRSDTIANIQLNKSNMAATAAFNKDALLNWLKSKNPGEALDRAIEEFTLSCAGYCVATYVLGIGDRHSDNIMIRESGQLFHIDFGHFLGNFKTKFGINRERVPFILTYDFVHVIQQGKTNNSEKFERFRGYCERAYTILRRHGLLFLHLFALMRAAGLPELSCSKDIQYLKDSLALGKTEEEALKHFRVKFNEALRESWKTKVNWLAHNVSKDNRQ

Target: T1, p110 delta (Homo sapiens, UniProt O00329)
T1 construct: purchased Upstate Group, Millipore; Dundee, UK
Experiment: PI3K isoform inhibition assay (fluorescence polarization), p110 delta
Format: biochemical
Conditions: p110 delta binding IC50, Example 901
Procedure: PI3K enzymatic activity was assayed by measuring the amount of product phosphatidylinositol 3,4,5-phosphate (PIP3) formed from substrate 4,5 phosphatidylinositol 4,5-phosphate (PIP2) using a fluorescence polarization displacement assay. The decrease in fluorescence polarization of a fluorescent PIP3 probe is measured as it is displaced from a PIP3-binding protein GRP-1 detector by PI3K-catalyzed product. Assays were conducted in 384-well black Proxiplates in the presence of 10 mM Tris (pH 7.5), 50 mM NaCl, 4 mM MgCl2, 5% glycerol, 25 μM ATP, 10 μM PIP2 (Echelon Biosciences), 0.05% 3-[(3-cholamidopropyl)dimethylammonio]-1-propanesulfonate, 1 mM dithiothreitol, and 2% DMSO. […] The reactions were stopped at timepoints that yielded a fixed change in fluorescence polarization consistent with initial rate conditions (typically 30 minutes), by the addition of 12.5 mM EDTA, 100 nM GRP-1 detector, and 5 nM tetramethylrhodamine-labeled PIP3 (TAMRA-PIP3; Echelon Biosciences). After 60 minutes of incubation at room temperature to allow equilibration of labeled and unlabeled PIP3 binding, the parallel and perpendicular components of the fluorescence emissions from each sample were measured at an excitation wavelength of 530 nm and an emission wavelength of 590 nm using an Envision fluorescent plate reader with a rhodamine filter (PerkinElmer Life and Analytical Sciences; Wellesley, Mass.). […]

IC50: 4.9 nM
Compound: CN(C)C1CCN(Cc2cc3nc(-c4c[nH]c5ccccc45)nc(N4CCOCC4)c3s2)CC1 [Compound 101, 1-((2-(1H-indol-3-yl)-4-morpholinothieno[3,2-d]pyrimidin-6-yl)methyl)-N,N-dimethylpiperidin-4-amine]
